Source: patent US5506340A, “Tumor necrosis factor inhibitors” (Centecor, Inc., priority 1994, dated 1996)

Sequences of proteins named here, by UniProt entry; tags and fusion partners are left off. Residues count along the entry.
UniProt P01375, 77-233 limits assumed: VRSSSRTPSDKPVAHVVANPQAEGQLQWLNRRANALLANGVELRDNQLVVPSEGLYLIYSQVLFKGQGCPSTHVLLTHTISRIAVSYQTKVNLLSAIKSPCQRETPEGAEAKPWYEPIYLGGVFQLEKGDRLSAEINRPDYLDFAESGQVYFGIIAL

Target: T1, human TNFα (Homo sapiens, UniProt P01375)
T1 construct: purchased Biosource, Camarillo, Calif
Assay: p55 receptor/IgG fusion protein binding assay (inhibition of TNFα capture by p55-Ig coated plate)
Details: positive control, cA2 Fab 500 ng/ml, TNFα 25 ng/ml; typical value
Method: In order to screen compounds for their ability to block TNFα binding to the TNF p55 receptor, an assay has been designed using TNFα and a p55/IgG fusion protein in place of monovalent, non-fusion p55 TNF receptor protein. This assay was designed to identify peptides which bind to human TNFα and thereby prevent the capture of the TNFα by a microtiter plate coated with p55-Ig fusion protein. A constant concentration of human TNFα is preincubated with the test peptide and then incubated on the p55-Ig coated microtiter wells. Bound TNFα is detected using a specific antisera and an alkaline phosphatase-conjugated probe. An active peptide will reduce the amount of human TNFα bound to the well relative to control wells in which TNFα but no peptide was added. […]
To detect TNFα captured by the p55-Ig plate, all wells were incubated in succession with polyclonal rabbit anti-human TNFα (Genzyme, Boston, Mass.; 1:500 in assay buffer, 50 μl/well), biotinylated goat anti-rabbit Ig (H&L) (Vector Laboratories, Burlingame, Calif; 1 μg/ml in assay buffer, 50 μl/well) and streptavidin-alkaline phosphatase conjugate (Pierce, Rockford, Ill.; 1 μg/ml in assay buffer, 50 μl/well). […] The optical density (OD) at 405 nm was measured on a microtiter plate reader (Molecular Devices Vmax plate reader), with the plate blank wells subtracted as background. […]

cA2 Fab: Fab fragment of the mouse/human monoclonal anti-human TNFα antibody cA2 (positive control) [reference compound]
percent inhibition of TNFα capture by the p55-Ig plate: > 75%
